# Bioassay records as filed in PubChem BioAssay.
# Rango dissoc inh: inhibition of RanGTP-driven Rango-importin beta dissociation; O95149+P62826; Biochemical FRET Rango-importin beta, RanGTP-induced dissociation; Potency, µM (highest dose often 46.1 µM); 0.071% of 340,000 active; AID 540253; calls by dose curve; further: nearly all actives have a fitted effect of over 45% in size
#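 Rango (0.1 uM)–importin beta (0.25 uM) complex; RanGTP-RCC1 trigger; 45 min RT; CFP/YFP FRET read.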
# AT treatment: candidate therapy for ataxia-telangiectasia. F2112 A-T fibroblasts, KAP-1 phosphorylation AlphaLISA; neocarzinostatin DNA damage 30 min before lysis. Potency, µM (top dose mostly 57.5 µM), usual class: activators. 0.19% of 320,000 active; further: nearly all actives have a fitted effect of over 45% in size
#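 hTERT-immortalized A-T patient fibroblasts (F2112), 500 cells/well in OPTI-MEM, 1% FBS, got compounds for 60 min, then NCS for 30 min at 37C. Lysates were then assayed for phospho-KAP-1 by AlphaLISA (anti-pKAP1 donor, anti-KAP1 acceptor beads), 6 hr at 25C.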
# IL2 activator: activates IL-2 in a cell-based reporter assay; IL-2 activation reporter assay, cell-based qHTS; stimulated with anti-CD3/CD4/CD28 beads; in transgenic mouse T cells; activation, % (series mostly up to about 46 µM); 0.065% of 360,000 active; in the data active means activation above about 50%; inconclusive means mostly about 30% to 49%
#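 EGFP and DsRed fluorescence is measured by plate cytometry in unstimulated transgenic mouse T cells exposed to compound for 60 minutes, then stimulated 18 hours at 37 degrees C with anti-CD3/anti-CD4 beads plus anti-CD28.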
# PKM2 activator: increases activity of human pyruvate kinase M2 | P14618 | Potency, µM (doses to about 57.5 µM), actives largely listed as activators | 0.34% of 260,000 active | purified PKM2, Kinase-Glo ATP luminescence, activation; response scale: 0% is enzyme alone, no compound; further: nearly all actives have a fitted effect of over 55% in size
#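 Purified hPK-M2 (>95%) run at intermediate activity with 0.1 mM ADP and 0.5 mM PEP in 50 mM imidazole pH 7.2, KCl, MgCl2; 1 h room temperature. ATP formed read by Kinase-Glo luminescence; normalized to uninhibited and no-enzyme controls.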
# Rango complex inh: inhibitors of Rango-importin beta complex formation; AID 540263; Rango CFP/YFP FRET sensor + importin beta, 45 min; Q14974; 0.031% of 340,000 active; Potency, µM (titrated, usually from 92.2 µM); calls by dose curve; further: nearly all actives have a fitted effect of over 15% in size
#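 FRET biosensor (snurportin 1 IBB flanked by EYFP and cerulean), 50 nM, with compound 5 min, then 0.125 microM importin beta in PBS, 1 mM DTT, 0.02% Tween-20, 0.1% BSA. CFP/YFP ratio read after 45 min at room temperature; pre-read flags interference.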
# Numbers stand for hits; n = inactive; u = inconclusive; x = not tested or not shown; [ ] = remark or other dose. Compounds with a hit are over-represented: about 0.59% of the library has one in this group of screens. Unless noted, the call rests on the fitted dose curve; in most records, active means well fitted activation curve with a large enough effect; inconclusive means small, poorly fitted or top-dose-only effect; inactive means no such curve, though single readings can be large or run the other way.
SMILES,Rango dissoc inh,AT treatment,IL2 activator,PKM2 activator,Rango complex inh
COc1ccc2ccccc2c1/C=N/NC(=S)Nc1cc(S(=O)(=O)N2CCOCC2)ccc1N1CCOCC1,n,n,n,n,u
CCOc1cc(/C=C2/C(=N)N3C(=NC2=O)SN=C3S(=O)(=O)C(C)C)ccc1OC(=O)c1ccco1,u,n,n,x,u
COc1cc(/C=C2/C(=N)N3C(=NC2=O)SN=C3S(=O)(=O)C(C)C)ccc1OC(=O)c1ccco1,8.2µM,n,n,x,u
CCO[C@H]1c2c(ccc3ccc(=O)oc23)OC(C)(C)[C@H]1O,n,n,n,x,n
Cc1nc(N2CCOCC2)c2nc(-c3ccccc3)n(CCN3CCCC3)c2n1,x,x,x,n,x
Oc1ccc(NCc2ccc(OCc3ccccc3)cc2)cc1,n,39.8µM,n,x,n
COc1cc2c(cc1OC)/C(=C/C(=O)N1CCOCC1)NC(C)(C)C2,n,n,n,25.1µM,u
CCOC(=O)/C=C1\NC(C)(C)Cc2cc(OC)c(OC)cc21,n,n,n,n,n
CN(C)CC(C(=O)c1ccccc1)c1ccccc1 (stereo unspecified),n,31.6µM,n,n,n
CCOC(=O)CSc1nc2sc3c(c2c(=O)n1-c1ccccc1)CCN(C)C3,u,n,n,n,u
CCOC(=O)CSc1nc2sc3c(c2c(=O)n1-c1ccccc1)CCN(C(C)C)C3,18.4µM,n,n,x,u
COC(=O)c1ccc(-c2noc(CN(C)CCC3CCCCO3)n2)cc1 (stereo unspecified),n,n,n,0.199µM,n
Cn1ncc(SCc2ccccc2)c(Cl)c1=O,n,n,n,17.8µM,n
Cn1ncc(S(=O)(=O)Cc2ccccc2)c(Cl)c1=O,n,n,n,n,n
O=C(Nc1ccc(Br)cc1)NC1CCCCCCC1,n,n,n,n,n
CNc1c([N+](=O)[O-])cnn1-c1ccccc1Cl,n,n,n,u,u
CNc1c([N+](=O)[O-])cnn1-c1ccc(Cl)cc1Cl,n,n,n,11.2µM,n
C#CCOCCOCCOCCNc1nc(N2CCN(C(=O)[C@H](CCCCN)n3cc(C(N)CO)nn3)CC2)nc(N2CCN(C(=O)[C@H](CCC(=O)O)n3cc(C(N)CC(C)C)nn3)CC2)n1 (stereo partly specified),x,39.8µM,x,n,x
C#CCOCCOCCOCCNc1nc(N2CCN(C(=O)[C@H]([C@@H](C)CC)n3cc([C@@H](N)CO)nn3)CC2)nc(N2CCN(C(=O)[C@H]([C@@H](C)CC)n3cc([C@@H](N)CO)nn3)CC2)n1,x,39.8µM,x,n,x
C#CCOCCOCCOCCNc1nc(N2CCN(C(=O)CCCCCCCCCCNC(=O)[C@H](CCCCN)n3cc(C)nn3)CC2)nc(N2CCN(C(=O)CCCCCCCCCCNC(=O)[C@H](CCCN=C(N)N)n3cc(C[C@@H](C)CC)nn3)CC2)n1,u,n,n,x,n
C#CCOCCOCCOCCNc1nc(N2CCN(C(=O)CCCCCCCCCCNC(=O)[C@H](CCCCN)n3cc(C[C@@H](C)CC)nn3)CC2)nc(N2CCN(C(=O)CCCCCCCCCCNC(=O)[C@H](CCCN=C(N)N)n3cc(C[C@@H](C)CC)nn3)CC2)n1,u,n,n,x,65.1µM
C#CCOCCOCCOCCNc1nc(N2CCN(C(=O)C([C@@H](C)O)n3cc([C@@H](N)CCCCN)nn3)CC2)nc(N2CCN(C(=O)[C@H](CCCN=C(N)N)n3cc(C(N)[C@@H](C)CC)nn3)CC2)n1 (stereo partly specified),n,n,n,x,51.7µM
N#C/C(=C(\O)Cc1ccccc1)c1nc2ccccc2[nH]1,u,n,n,n,n
N#C/C(=C(/O)CCl)c1nc2ccccc2[nH]1,13µM,n,n,x,u
Cc1cccc(C)c1Nc1nnc(SC/C(O)=C(\C#N)c2nc3ccccc3[nH]2)s1,14.6µM,n,n,n,u
SMILES,Rango dissoc inh,AT treatment,IL2 activator,PKM2 activator,Rango complex inh
CCC(c1ccccc1)c1noc(CCN(CC)CC)n1 (stereo unspecified),x,x,n,x,x
N#C/C(=C\Nc1ccc(Cl)cn1)S(=O)(=O)c1ccccc1,n,n,n,15.8µM,n
N#C/C(=C\Nc1ccc(Cl)cn1)S(=O)(=O)c1ccccn1,n,n,n,10µM,n
CNC[C@H]1Oc2cc(Br)ccc2S(=O)(=O)N([C@H](C)CO)C[C@H]1C,x,x,n,x,x
Cc1cccc2nc3c(nc12)CCCC3,n,n,n,x,n
Cc1ccc(-c2csc(Nc3ccc(S(N)(=O)=O)cc3)n2)o1,n,n,n,10µM,n
Cc1nc(SCC(=O)c2ccccc2)c(C#N)c(-c2ccco2)c1C(=O)NCc1ccco1,u,n,n,25.1µM,u
CCN(CC)Cc1c(O)ccc2cc(-c3nc4ccccc4n3C)c(=O)oc12,u,22.4µM,n,x,u
CCc1cc2c(=O)c(-c3nc4ccccc4n3C)c(C)oc2c(CN(CC)CC)c1O,n,n,n,n,n
COc1cc2c(cc1OC)C1O[C@](c3ccsc3)(C2)Oc2cc(-c3ccccc3)oc(=O)c21,x,n[11.5 µM],x,n[11.5 µM],x
COc1ccc(-c2sc3ccccc3c2C#CC2(O)CCCCC2)cc1,n,31.6µM,n,n,n
COc1ccc(-c2sc3ccccc3c2C#Cc2cncn2C)cc1,n,31.6µM,n,x,n
COc1ccc(-c2sc3cc(OC)c(OC)cc3c2C#CC2(O)CCCCC2)cc1,n,u,n,x,n
CC(C)(C)OC(=O)N1CCC(C(=O)Nc2ccc(C(=O)NCc3ccccc3)cc2)CC1,n,x,n,x,n
OCC[n+]1ccc(/C=C/c2c[nH]c3ccccc23)cc1,u,n,94.5,n,u
N#Cc1c(-c2ccccc2)cc(-c2ccccc2)[nH]c1=O,n,0.794µM,n,x,n
O=C(/C=C/Nc1ccc(S(=O)(=O)Nc2cnc3ccccc3n2)cc1)c1ccccc1,8.2µM,n,n,n,u
COc1cccc(C(=O)/C=C/Nc2ccc(S(=O)(=O)Nc3cnc4ccccc4n3)cc2)c1,u,n,n,n,u
O=S(=O)(Nc1ccc(S(=O)(=O)Nc2ccccc2)cc1)c1ccccc1,n,n,n,u,n
O=S(=O)(Nc1ccc(-n2cccc2)cc1)c1ccccc1,n,n,n,15.8µM,n
CCSC1=N/C(=C\c2ccc3c(c2)OCO3)C(=O)S1,16.4µM,x,n,n,u
CCCSC1=N/C(=C\c2ccc3c(c2)OCO3)C(=O)S1,u,n,n,n,u
Cc1cccc(C)c1NC(=O)CSc1nnc(-c2ccco2)c(-c2ccco2)n1,n,n,n,11.2µM,n
CC1(C(=O)NS(=O)(=O)c2ccccc2Cl)CCN1C(=O)CC1CC1 (stereo unspecified),x,x,n,x,x
CCN(CC(=O)NCc1ccc(F)cc1)C(=O)/C=C/c1cccs1,n,n,n,n,n
CCN(CC(=O)NCc1ccc(F)cc1)C(=O)/C=C/c1ccco1,n,n,n,12.6µM,n
O=C(COC(=O)c1ccc[nH]c1=O)NCCCc1ccccc1,u,n,n,x,n
